Measured values: US20180325850A1, “VALPROIC ACID FOR TREATMENT OF MYOCARDIAL ISCHEMIA” (The Regents of the University of Michigan, priority 2017, published 2018)

System: MI rats generated by ischemia reperfusion
Assay: Myocardial infarct size by triphenyltetrazolium chloride (TTC) staining
Format: in vivo, rat
Conditions: IR rats; 250 mg/kg VPA i.p. twice; TTC staining 24 h after injury
Method: Myocardial infarct size was determined by triphenyltetrazolium chloride (TTC) staining. The hearts were frozen rapidly and sliced into five 2 mm transverse sections. The sections were incubated at 37° C. with 1% TTC in phosphate buffer (pH 7.4) for 10 min, fixed in 10% formaldehyde solution, photographed and calculated using ImageJ software. The infarct size was expressed as a percentage of infarct volume versus left ventricle volume.

CCCC(CCC)C(=O)O [VPA, valproic acid]
infarct size (infarct volume versus left ventricle volume): 19.14±2.89 % of the left ventricle
